PGC1a acetyl inh: lowers PGC1a acetylation signal in U2OS cells; inhibition, % at 15.6 µM; AlphaScreen anti-acetyl-lysine; with virally co-expressed GCN5 acetyltransferase; actives 0.17% (n = 350,000); AID 651687;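 active = every replicate shows inhibition of at least 40%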;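 note: 0% = neutral control wells and 100% = positive control wells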
iPSC survival up: hiPSC single-cell survival enhancement. survival enhancement, % at 20 µM. actives 0.044% (n = 360,000). ATPlite luminescence; 100% = ROCK inhibitor wells, 0% = DMSO. AID 602274; in the data active = survival enhancement above about 18%;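 note: cells exposed to compounds for 16 hours before the ATP read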
Yeast UUG start: alters start codon recognition fidelity in yeast. S. cerevisiae UUG-firefly luciferase reporter, luminescence/redox ratio. activity score, % at 18.7 µM. 0.13% of 350,000 active. AID 602363;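 active = replicate mean at a twofold rise or more, about +100% in these data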;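 also: firefly luciferase made from a UUG start codon reports start codon fidelity; reporter light over untreated wells divided by growth signal over untreated wells; some hits fall short of that in this replicate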
FN deposition inh: fibronectin deposition inhibition; AH1F fibroblasts, Alexa488-fibronectin deposition fluorescence, overnight; inhibition, % at 12.6 µM; actives 0.086% (n = 350,000); AID 743247;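 active = mean inhibition across replicates of 30% or more, regardless of how many single replicates reach that level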;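 note: positive control wells lacked labelled fibronectin entirely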
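Schedule: 1 h cell adhesion before compound, then overnight fibronectin incubation; test system: AH1F fibroblast monolayer depositing Alexa488-labelled fibronectin into matrix; quantity: 10000 AH1F cells per well; probe or stimulus: fluorescent fibronectin at 24 nM final; signal: fluorescence, ex 485 nm, em 525 nm; evaluation: percent inhibition as loss of matrix-bound fibronectin fluorescence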
Statin myotox sup: protects C2C12 myotubes from simvastatin toxicity; ATP luminescence, 48 h; scaled: DMSO 0, geranylgeraniol control 100; rescue of ATP level, % at 7.49 µM; actives 0.78% (n = 330,000); AID 602340;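 active = mean ATP rescue above about 67%, or every replicate alone reaching that limit, limit read from the data, passing the limit was not always enough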;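 note: myotubes were challenged with 10 µM simvastatin during compound exposure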
The depositor's hits bear a star. Shown are actives, neighbours in structure and some others; about 0.91% of the full set was active somewhere.

Results for COc1cccc(C(=O)Nc2nc3c(c(=O)[nH]2)CCCC3)c1 ?
PGC1a acetyl inh: -10.6; iPSC survival up: -0.3; Yeast UUG start: -10.1; FN deposition inh: 3.4; Statin myotox sup: 95.8*

What do the screens show for `COc1cccc(C(=O)Nc2c[nH]c(=O)[nH]c2=O)c1`?
PGC1a acetyl inh: -10.9; iPSC survival up: -0.5; Yeast UUG start: -13.2; FN deposition inh: 0.5; Statin myotox sup: 3.1

What do the screens show for `CCC(=O)Nc1ccc2c(c1)OC[C@@H](C)N(C(=O)C1CC1)C[C@@H](C)[C@@H](OC)CN(C)C2=O`?
PGC1a acetyl inh: 3.4; Yeast UUG start: -2.8; FN deposition inh: -6.1; Statin myotox sup: -3.2

How did O=S(=O)(NCc1cccnc1)c1ccc(Br)c2ccccc12 do in these assays?
iPSC survival up: -0.7; Yeast UUG start: -6.5; FN deposition inh: 3.1; Statin myotox sup: 10.2

How did COc1ccc(OC)c(S(=O)(=O)NCc2cccnc2)c1 do in these assays?
PGC1a acetyl inh: 1.5; iPSC survival up: -1.9; Yeast UUG start: -17.5; Statin myotox sup: 125.6*

How did COc1ccc(OC)c(S(=O)(=O)NCc2ccccc2)c1 do in these assays?
iPSC survival up: 1.6; Yeast UUG start: -14.5; FN deposition inh: -1.7; Statin myotox sup: 2.0

What do the screens show for `COc1ccc(S(=O)(=O)NCc2cccnc2)c2ccccc12`?
PGC1a acetyl inh: -3.0; iPSC survival up: -0.5; Yeast UUG start: -4.8; FN deposition inh: -4.1; Statin myotox sup: 93.8*

How did Cc1ccc(-c2cc(N)n(-c3ccc(C)cc3)n2)cc1 do in these assays?
PGC1a acetyl inh: -13.7; iPSC survival up: -3.3; Yeast UUG start: -17.5; Statin myotox sup: 111.8*

Results for Cc1ccc(-c2cc(N)n(-c3ccc(F)cc3)n2)cc1 ?
iPSC survival up: 0.1

Results for COCC(=O)NC[C@H]1[C@@H](c2ccc(C3=CCCC3)cc2)[C@H](CO)N1C(C)=O ?
PGC1a acetyl inh: -0.2; Yeast UUG start: -6.3; FN deposition inh: -7.2; Statin myotox sup: 10.6

Results for Cc1csc(NC(=O)CSc2nc3[nH]c(=O)cc(O)c3s2)n1 ?
PGC1a acetyl inh: -7.9; iPSC survival up: -2.1; Yeast UUG start: 2.4; Statin myotox sup: 174.7*

Results for C[C@@H]1CN([C@H](C)CO)C(=O)c2cc(C#Cc3ccccn3)cnc2O[C@@H]1CN(C)C(=O)c1cnccn1 ?
PGC1a acetyl inh: 5.4; Yeast UUG start: 4.2; Statin myotox sup: 4.0

Results for CCCN1C(=O)C(O)(C/C(C)=N/O)c2ccccc21 (stereo unspecified) ?
PGC1a acetyl inh: 6.8; iPSC survival up: -1.5; Yeast UUG start: -6.1; Statin myotox sup: 125.0*

What do the screens show for `C[C@H](CO)N1C[C@H](C)[C@H](CN(C)Cc2ccc(C(=O)O)cc2)Oc2c(NC(=O)Nc3ccc4c(c3)OCO4)cccc2C1=O`?
PGC1a acetyl inh: 4.6; Yeast UUG start: -4.7; FN deposition inh: -3.9

What do the screens show for `O=C(OCc1ccccc1)N1CCC2CC1c1cc(NCCc3ccccc3)ccc12` (stereo unspecified)?
PGC1a acetyl inh: -1.9; iPSC survival up: 2.5; Yeast UUG start: -17.8; FN deposition inh: -9.1; Statin myotox sup: 5.7

Results for COc1ccc(-c2ccc3c(c2)C2CC3CCN2C(=O)OCc2ccccc2)cc1 (stereo unspecified) ?
PGC1a acetyl inh: 2.8; iPSC survival up: -0.9; Yeast UUG start: -11.9; FN deposition inh: active; Statin myotox sup: -24.6

What do the screens show for `O=C(OCc1ccccc1)N1CCC2CC1c1cc(-c3ccc(F)cc3)ccc12` (stereo unspecified)?
PGC1a acetyl inh: 62.8*; iPSC survival up: 5.6; Yeast UUG start: -31.9; FN deposition inh: -1.7; Statin myotox sup: 4.5

How did O=C(OCc1ccccc1)N1CCC2CC1c1cc(-c3cc4ccccc4o3)ccc12 (stereo unspecified) do in these assays?
PGC1a acetyl inh: 3.8; iPSC survival up: -2.1; Yeast UUG start: -11.9; Statin myotox sup: -16.7

How did Cc1cccc(Cn2c(N3CCCCC3C)nc3c2c(=O)[nH]c(=O)n3C)c1 (stereo unspecified) do in these assays?
PGC1a acetyl inh: -2.7; iPSC survival up: 2.9; Yeast UUG start: -3.6; FN deposition inh: -3.0; Statin myotox sup: 119.6*

Results for O=C1Cc2ccccc2C(=O)N1OCc1ccc(Cl)cc1 ?
PGC1a acetyl inh: 9.7; iPSC survival up: -0.3; FN deposition inh: -2.4; Statin myotox sup: -2.1

Reprinted at random: 2 records from the list.
What do the screens show for `COc1ccc(S(=O)(=O)NCc2cccnc2)c2ccccc12`?
PGC1a acetyl inh: -3.0; iPSC survival up: -0.5; Yeast UUG start: -4.8; FN deposition inh: -4.1; Statin myotox sup: 93.8*

How did COc1ccc(OC)c(S(=O)(=O)NCc2cccnc2)c1 do in these assays?
PGC1a acetyl inh: 1.5; iPSC survival up: -1.9; Yeast UUG start: -17.5; Statin myotox sup: 125.6*

Returning to the listing, starting two compounds before the break.
How did Cc1cccc(Cn2c(N3CCCCC3C)nc3c2c(=O)[nH]c(=O)n3C)c1 (stereo unspecified) do in these assays?
PGC1a acetyl inh: -2.7; iPSC survival up: 2.9; Yeast UUG start: -3.6; FN deposition inh: -3.0; Statin myotox sup: 119.6*

Results for O=C1Cc2ccccc2C(=O)N1OCc1ccc(Cl)cc1 ?
PGC1a acetyl inh: 9.7; iPSC survival up: -0.3; FN deposition inh: -2.4; Statin myotox sup: -2.1

How did O=C1c2ccccc2C(=O)N1OCc1ccc(Cl)cc1 do in these assays?
PGC1a acetyl inh: -3.2; iPSC survival up: -2.9; Yeast UUG start: -14.1; Statin myotox sup: 68.1*

How did CC(=O)Nc1cc(OC(C)=O)c2nonc2c1OC(C)=O do in these assays?
PGC1a acetyl inh: 44.2*; iPSC survival up: 1.6; Yeast UUG start: -6.5; Statin myotox sup: 1.6

Results for CC(=O)Nc1nonc1NC(C)=O ?
PGC1a acetyl inh: -3.6; iPSC survival up: -3.1; Yeast UUG start: -4.8; FN deposition inh: -1.6; Statin myotox sup: 7.3

What do the screens show for `COc1cccc(C(=O)CSc2nnc(CNS(=O)(=O)c3ccc(C)cc3)n2C)c1`?
PGC1a acetyl inh: 88.6*; iPSC survival up: 1.7

How did COC(=O)CSc1nnc(CNS(=O)(=O)c2ccc(C)cc2)n1C do in these assays?
PGC1a acetyl inh: -5.1; iPSC survival up: -2.7; Yeast UUG start: -4.5; Statin myotox sup: 3.1

What do the screens show for `Cc1noc(C)c1NC(=O)N(C)C[C@@H]1OCCCC[C@H](C)Oc2ccc(NC(=O)Nc3cccc4ccccc34)cc2C(=O)N([C@@H](C)CO)C[C@H]1C`?
PGC1a acetyl inh: 12.1; Yeast UUG start: 0.5

What do the screens show for `CNC[C@H]1Oc2ccc(NC(=O)NC(C)C)cc2C(=O)N([C@@H](C)CO)C[C@@H]1C`?
PGC1a acetyl inh: 1.2; Yeast UUG start: -1.8; Statin myotox sup: -6.0

How did COc1cccc(C(=O)Nn2cnnc2)c1OC do in these assays?
PGC1a acetyl inh: 74.9*; iPSC survival up: -0.5; Yeast UUG start: -14.3; FN deposition inh: 9.2; Statin myotox sup: 3.4

What do the screens show for `COc1cc(OC)cc(-n2nc(C(=O)NCCCN3CCOCC3)c3ccccc3c2=O)c1`?
PGC1a acetyl inh: -1.7; iPSC survival up: 2.3; Yeast UUG start: 0.9

Results for COCCNC(=O)c1nn(-c2cc(OC)cc(OC)c2)c(=O)c2ccccc12 ?
PGC1a acetyl inh: 0.1; iPSC survival up: 2.1; Yeast UUG start: -3.4; Statin myotox sup: 109.8*

What do the screens show for `Cc1ccc(-c2csc(C(O)c3ccc(F)c(F)c3)n2)cc1C` (stereo unspecified)?
PGC1a acetyl inh: 2.0; iPSC survival up: 4.0; Yeast UUG start: -14.0; FN deposition inh: -1.2; Statin myotox sup: -4.7

Results for COc1ccc(/C=N/NC(=O)c2nnn(-c3nonc3N)c2-c2cccs2)cc1OC ?
PGC1a acetyl inh: 4.0; iPSC survival up: 0.0; Yeast UUG start: -21.3; FN deposition inh: 25.5; Statin myotox sup: 10.0

How did Nc1nonc1-n1nnc(C(=O)N/N=C/c2cccc(Cl)c2)c1-c1cccs1 do in these assays?
PGC1a acetyl inh: 1.8; iPSC survival up: 1.0; Yeast UUG start: -23.9; FN deposition inh: -0.2; Statin myotox sup: 72.4*

Compound activity (PubChem)
